Ab-14 heavy chain CDR variants: yeast mating affinities

Antigen: PDVDLGDISGINAS, a 14-residue peptide of the SARS-CoV-2 spike HR2 region.

Each scFv is VH, the linker GGGGSGGGGSGGGGS, VL, as in the parent Ab-14, and differs from it in the CDRs of the heavy chain only.
VH: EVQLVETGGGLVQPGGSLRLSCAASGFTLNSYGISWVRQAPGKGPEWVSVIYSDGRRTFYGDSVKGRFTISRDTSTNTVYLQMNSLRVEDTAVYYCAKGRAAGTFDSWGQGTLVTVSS
VL: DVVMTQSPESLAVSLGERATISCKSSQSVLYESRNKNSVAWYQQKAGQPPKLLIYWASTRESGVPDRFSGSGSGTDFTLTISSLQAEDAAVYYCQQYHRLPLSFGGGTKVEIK

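The parent was found by panning a naive human phage display library on the peptide. Library AAYL49 holds single substitutions and randomly drawn double and triple substitutions in the CDRs. Affinity was read by AlphaSeq, a pooled yeast mating assay with surface-displayed partners. After mating in shaken culture at 30 °C for 16 h, diploids were selected and their barcode pairs sequenced. A regression on co-assayed BCL2-family reference pairs converts the normalised counts of each replicate to an apparent Kd. Mating was done three times.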

Each variant is given by its three heavy chain CDRs, as the data file delimits them; those of the parent are GFTLNSYGIS, VIYSDGRRTFYGDSVK, GRAAGTFDS. Affinities are written as log10 Kd with Kd in nM; a lower number is a better binder. A pair that was not seen in that replicate is written "n.d."; this usually means weak binding, but a binder can also be missed. Three control strains display no target. For library AAYL49, 15% of the pairings with them gave a signal, with a median of 4.06 and one signal in twenty below 2.83, so weak values seen in few replicates may be background. Also given: how often the same scFv was detected with the empty control strains, with their mean in brackets.

| CDR-H1 | CDR-H2 | CDR-H3 | log10 Kd (nM) by replicate | signal with controls |
|---|---|---|---|---|
| RFTLNSYGIS | VIYSDGRRTFYGDSVK | GRAAGTFGA | 4.86 4.77 n.d. | 3/9 (3.87) |
| GFTLNSYGYS | VIYSDGRITFYGDSVK | GRASGTFDS | 5.99 4.08 4.39 | 4/9 (4.48) |
| GFTLNMYGIS | VIYSDGRRTFYGDSVV | GRFAGTFDS | 0.96 1.04 1.02 | 2/9 (4.46) |
| GWTLNSYGIS | VIYSDGRRTFYGDSVK | SDAAGTFDS | 3.84 2.79 2.23 | 3/9 (3.16) |
| GFTLNLYGIS | VIYSDGRRTFYGDSVK | GCAAGWFDS | 1.82 2.72 2.93 | 0/9 |
| GFTNNSYGIS | VIYSHGRRTFYGDSVK | GRAAGTFDS | 4.46 5.03 6.29 | 5/9 (4.66) |
| GFTLNSYGIS | VIYSDQRRTFYGDSVG | GRAADTFDS | n.d. n.d. n.d. | 0/9 |
| GFTLNSYGFS | VIYSEGRRTFYGDSVK | IRAAGTFDS | n.d. n.d. n.d. | 1/9 (3.64) |
| GFTLNSYGIS | SIYSDKRRTFYGDSVK | GRAAGTMDS | n.d. n.d. n.d. | 0/9 |
| GFTLNSYGIS | VIYSDERRTFMGDSVK | GRAAGRFDS | n.d. n.d. n.d. | 0/9 |
| AFTLNGYGIS | VIYSDGRRTFYGDSVK | GRAAGTFDS | 4.67 n.d. n.d. | 1/9 (3.21) |
| VFTLNLYGIS | VIYSTGRRTFYGDSVK | GRAAGTFDS | n.d. n.d. n.d. | 2/9 (3.91) |
| GFTLNSYGIS | VIYSDGRRTFLGHSVK | GRAAGCFDS | n.d. 3.90 3.16 | 2/9 (3.76) |
| GFTLNSYDIS | VIYEDGRRTFYGDSVK | GRAAGTSDS | n.d. n.d. n.d. | 0/9 |
| GFTLNSYGIS | VIYSDGRRYFYGDSVK | GRAAGFFDQ | 2.76 2.41 2.85 | 2/9 (4.00) |
| KNTLNSYGIS | VIYSDGRRTFYDDSVK | GRAAGTFDS | 0.57 0.73 0.43 | 1/9 (3.58) |
| GFYLNSYGIS | VIYSVGRRTFYNDSVK | GRAAGTFDS | n.d. n.d. n.d. | 1/9 (1.98) |
| GFTLNSYGIS | VIYSDGRSTFYGDSAC | GRAAGTFDS | n.d. n.d. n.d. | 1/9 (3.60) |
| GFTLNSYGIS | VIYSDGRRLFYNDIVK | GRAAGTFDS | 2.84 2.46 2.82 | 2/9 (3.60) |
| GFTLNSYGIS | VIYSDGRRTFYGDSVK | GRAATTANS | n.d. n.d. n.d. | 0/9 |
| GETLNSYGIS | VIYSDGRRTSYGDSVK | GFAAGTFDS | n.d. n.d. n.d. | 0/9 |
| VFTLNSYGIS | VIYADGRRTFYGDSVK | GRADGTFDS | n.d. n.d. n.d. | 0/9 |
| GFTLNSYGDS | VIYSDGRRTFYGDSVK | GRAAGVLDS | n.d. n.d. n.d. | 0/9 |
| GFTTNSYGIV | VIYSDGRRTFYGDSVK | GRAAGTPDS | 4.59 n.d. n.d. | 1/9 (4.61) |
| GVTLNSYGIS | VIYADGRRTFYGDSVK | GRAAGTFDS | 0.25 0.47 0.52 | 1/9 (3.03) |
| GFTLNSYQIS | VIYSDGRRTFYGDSVK | GRAAGIFGS | n.d. n.d. n.d. | 0/9 |
| GFTLNVYGIS | VDISDGRRTFYGDSVK | GRAAGTFDS | n.d. n.d. n.d. | 5/9 (3.80) |
| GFTLQSYGIS | VIYSDGRRTFYGDSVK | ERAAGTFDF | n.d. n.d. n.d. | 1/9 (3.81) |
| GFTLNSYGES | VIYSDTRRTFYGDSVK | GRAAGTFDS | n.d. n.d. n.d. | 0/9 |
| GFTLNSYGIS | RIYSDVRRTFYGCSVK | GRAAGTFDS | n.d. n.d. n.d. | 2/9 (4.59) |
| GFTLNSYTID | VIYSDGRRTFYGWSVK | GRAAGTFDS | 3.33 n.d. n.d. | 1/9 (4.09) |
| GFTLNSYNIS | VIYSDGRRTLYWDSVK | GRAAGTFDS | n.d. 4.65 5.39 | 4/9 (4.11) |
| GFTLNSYGIS | VIYSDGRMTFYGDGAK | GRAAGTFDS | n.d. n.d. 3.98 | 1/9 (3.58) |
| GFTINSYGIS | DIYSDGRRTFYGDSVK | GRAAGTFDS | n.d. n.d. n.d. | 0/9 |
| GFTLNSYGIS | VICSDGRRTFYGDQVK | GRAAGTLDS | n.d. n.d. n.d. | 0/9 |
| GFHLNSYGIS | VIYSDGRRTFYVDSVK | GRAAGTFDF | 0.96 1.12 1.41 | 1/9 (3.61) |

The first 4 variants above that were never detected:

| CDR-H1 | CDR-H2 | CDR-H3 | log10 Kd (nM) by replicate | signal with controls |
|---|---|---|---|---|
| GFTLNSYGIS | VIYSDQRRTFYGDSVG | GRAADTFDS | n.d. n.d. n.d. | 0/9 |
| GFTLNSYGFS | VIYSEGRRTFYGDSVK | IRAAGTFDS | n.d. n.d. n.d. | 1/9 (3.64) |
| GFTLNSYGIS | SIYSDKRRTFYGDSVK | GRAAGTMDS | n.d. n.d. n.d. | 0/9 |
| GFTLNSYGIS | VIYSDERRTFMGDSVK | GRAAGRFDS | n.d. n.d. n.d. | 0/9 |

Values reported by Engelhart et al. 2022, doi:10.1038/s41597-022-01779-4 (FLAb copy).